Measured values: paper PMC3711766 (The Journal of neuroscience : the official journal of the …, 2013)

By UniProt entry, the sequences of proteins in these tests, tags left out.
UniProt P42866, whole entry: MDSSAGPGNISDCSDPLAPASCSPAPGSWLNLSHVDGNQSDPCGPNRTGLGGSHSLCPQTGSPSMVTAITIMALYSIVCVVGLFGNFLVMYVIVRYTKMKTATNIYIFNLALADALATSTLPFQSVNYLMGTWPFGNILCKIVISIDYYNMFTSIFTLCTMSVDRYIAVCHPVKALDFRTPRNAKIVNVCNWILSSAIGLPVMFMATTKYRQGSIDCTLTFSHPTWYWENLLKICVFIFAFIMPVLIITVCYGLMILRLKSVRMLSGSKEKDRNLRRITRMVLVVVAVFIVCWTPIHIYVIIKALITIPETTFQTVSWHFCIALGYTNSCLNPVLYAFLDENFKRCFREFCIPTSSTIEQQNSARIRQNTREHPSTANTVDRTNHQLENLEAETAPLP

Molecular target: FLAG-MOR (Mus musculus, UniProt P42866)
Assay type: binding

For `CCC(=O)C(CC(C)N(C)C)(c1ccccc1)c1ccccc1` (stereo not shown) [methadone], the “fraction derm A594 remaining after 3 min” value was 0.44±0.01.
